This is an account of results in ChEMBL document CHEMBL1152169, “Synthesis and structure-activity relationships of selective norepinephrine reuptake inhibitors (sNRI) with improved pharmaceutical characteristics” (Bioorg Med Chem Lett, 2008).

This data set can be described thus: Metabolic stability assessed as intrinsic clearance in rat liver microsome. Conditions: liver microsomes.
As a reminder, the CLint scaled is the rate of metabolic loss divided by the concentration. Turning to `CNC[C@]1(O)Cc2ccccc2[C@@H]1Oc1ccccc1OC`, the CLint scaled was at most 3 mL/min/kg.
For `CNC[C@]1(O)Cc2ccccc2[C@@H]1Oc1ccc(F)cc1C`, the CLint scaled is at most 3 mL/min/kg.
As to `CNC[C@]1(O)Cc2ccccc2[C@@H]1Oc1ccc(C)cc1C`, the CLint scaled was 32 mL/min/kg.
Next, `CNC[C@]1(O)Cc2ccccc2[C@@H]1Oc1cccc(C)c1C`: 43 mL/min/kg; `CNC[C@]1(O)Cc2ccccc2[C@@H]1Oc1ccccc1C`: 10 mL/min/kg.
The value for `CCc1ccccc1O[C@H]1c2ccccc2C[C@@]1(O)CNC` was at most 3 mL/min/kg; that for `CNC[C@]1(O)Cc2ccccc2[C@@H]1Oc1cccc(O)c1C` was 6 mL/min/kg.
